Target: CALCRL (Homo sapiens, UniProt O60894+Q16602)
Test: Quencher dye screening, CNG channel cell response: hCGRPb on CALCRL
Assay type: cell-based
Conditions: cell line ASC0156

Amino acid sequences for entries named in this document (tags omitted). Residues count along the entry.
UniProt O60894, 27-148, species assumed: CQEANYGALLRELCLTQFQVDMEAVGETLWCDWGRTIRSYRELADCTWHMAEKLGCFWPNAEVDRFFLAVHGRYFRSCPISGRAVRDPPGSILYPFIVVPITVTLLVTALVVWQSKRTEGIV
UniProt Q16602, 23-461, species assumed: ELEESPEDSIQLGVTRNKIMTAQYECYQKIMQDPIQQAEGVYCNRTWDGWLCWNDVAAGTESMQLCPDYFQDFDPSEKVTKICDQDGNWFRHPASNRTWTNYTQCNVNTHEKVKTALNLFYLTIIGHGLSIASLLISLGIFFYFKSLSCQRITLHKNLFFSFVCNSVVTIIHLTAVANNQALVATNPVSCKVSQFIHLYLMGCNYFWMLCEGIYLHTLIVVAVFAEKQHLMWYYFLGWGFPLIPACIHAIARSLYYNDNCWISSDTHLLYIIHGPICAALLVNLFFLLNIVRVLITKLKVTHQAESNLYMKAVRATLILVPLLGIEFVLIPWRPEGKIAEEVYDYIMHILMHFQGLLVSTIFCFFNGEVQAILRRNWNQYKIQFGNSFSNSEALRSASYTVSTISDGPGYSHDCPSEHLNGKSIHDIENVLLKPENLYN

In the case of `CSCC[C@H](NC(=O)CNC(=O)CNC(=O)[C@H](CO)NC(=O)[C@H](CCCNC(=N)N)NC(=O)[C@H](CO)NC(=O)[C@H](CC(C)C)NC(=O)[C@H](CC(C)C)NC(=O)CNC(=O)[C@H](C)NC(=O)[C@H](CC(C)C)NC(=O)[C@H](CCCNC(=N)N)NC(=O)[C@H](Cc1c[nH]cn1)NC(=O)[C@@H](NC(=O)[C@@H](NC(=O)[C@@H]1CSSC[C@H](NC(=O)[C@H](C)N)C(=O)N[C@@H](CC(N)=O)C(=O)N[C@@H]([C@@H](C)O)C(=O)N[C@@H](C)C(=O)N[C@@H]([C@@H](C)O)C(=O)N1)C(C)C)[C@@H](C)O)C(=O)N[C@H](C(=O)N[C@@H](CCCCN)C(=O)N[C@@H](CO)C(=O)N[C@@H](CC(N)=O)C(=O)N[C@@H](Cc1ccccc1)C(=O)N[C@H](C(=O)N1CCC[C@H]1C(=O)N[C@H](C(=O)N[C@@H](CC(N)=O)C(=O)N[C@H](C(=O)NCC(=O)N[C@@H](CO)C(=O)N[C@@H](CCCCN)C(=O)N[C@@H](C)C(=O)N[C@@H](Cc1ccccc1)C(N)=O)C(C)C)[C@@H](C)O)C(C)C)C(C)C` [hCGRPb], the EC50 (MDC dye) is reported as 0.018 nM and the EC50 (dye NY & H30602) is reported as 0.016 nM.

From patent EP1682577B1, “CELL-BASED ASSAYS EMPLOYING VOLTAGE AND CALCIUM DYES” (priority 2003, dated 2005)
